Test results reported in patent US9765116B2, “Inhibitors of the Eph-A receptor and uses thereof” (Carmel Haifa University Economic Corporation Ltd., priority 2013, dated 2017).

Protein sequences, listed by entry. Tags and fused reporters are not part of them. Residues count along the entry.
UniProt D3ZZK3, 20-986: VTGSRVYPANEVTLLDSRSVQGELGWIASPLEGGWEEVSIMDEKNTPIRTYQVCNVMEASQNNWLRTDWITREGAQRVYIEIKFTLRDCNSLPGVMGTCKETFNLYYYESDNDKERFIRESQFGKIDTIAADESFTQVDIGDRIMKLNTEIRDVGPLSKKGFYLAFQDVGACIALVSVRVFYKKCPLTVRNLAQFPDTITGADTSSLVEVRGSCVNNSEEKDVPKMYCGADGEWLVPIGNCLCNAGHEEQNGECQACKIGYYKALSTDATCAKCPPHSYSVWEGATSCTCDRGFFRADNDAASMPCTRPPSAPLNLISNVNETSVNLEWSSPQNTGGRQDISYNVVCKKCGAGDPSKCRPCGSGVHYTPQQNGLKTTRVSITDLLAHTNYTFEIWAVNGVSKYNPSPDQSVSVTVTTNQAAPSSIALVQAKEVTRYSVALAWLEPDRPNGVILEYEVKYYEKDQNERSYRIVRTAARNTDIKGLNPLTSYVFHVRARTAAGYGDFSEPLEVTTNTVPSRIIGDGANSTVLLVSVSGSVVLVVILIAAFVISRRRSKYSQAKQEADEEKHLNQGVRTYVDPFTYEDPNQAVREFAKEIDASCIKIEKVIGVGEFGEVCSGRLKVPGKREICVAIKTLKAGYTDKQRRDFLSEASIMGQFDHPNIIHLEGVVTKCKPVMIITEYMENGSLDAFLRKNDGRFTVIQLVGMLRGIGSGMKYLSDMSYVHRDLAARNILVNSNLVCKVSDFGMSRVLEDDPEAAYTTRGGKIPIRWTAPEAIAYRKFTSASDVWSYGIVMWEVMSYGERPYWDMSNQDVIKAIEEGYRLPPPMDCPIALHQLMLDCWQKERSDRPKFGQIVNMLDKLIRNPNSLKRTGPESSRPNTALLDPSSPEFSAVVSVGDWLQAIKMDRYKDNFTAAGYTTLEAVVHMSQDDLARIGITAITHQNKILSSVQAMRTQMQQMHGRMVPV

Experiments:
[1] = target: T1, eukaryotic elongation factor 2 (eEF2) (Rattus norvegicus, UniProt P05197); experiment: In vitro pull down model using rat brain homogenate, Western blot for eEF2 control; type: binding; conditions: 20 micrograms peptide, rat brain lysate
T1 construct: incubated for 1 hour with equal amounts of brain lysate; from tissue; host or cells: rat brain homogenate
Experimental: (§1) A pull-down assay was performed to test the affinity of peptide 1 and peptide 2 to EphA4 receptor. Homogenized rat brain was used as a source for EphA4 receptor. Rat brains were homogenized with Tris(tris(hydroxymethyl)aminomethane) buffer comprising 50 millimolar (mM) tris, 1% NP-40 and 2 mM ethylenediaminetetraacetic acid. Peptides 1 and 2, in amounts of 20 micrograms, were respectively incubated for 1 hour with equal amounts of brain lysate diluted with 50 mM Tris buffer at room temperature, followed by incubation for 1 hour with 50 microliters of Streptavidin Agarose. The samples were washed with 50 mM Tris buffer. Proteins were then eluted with boiled sample buffer and separated using gel electrophoresis (SDS-PAGE).
(§2) Western blot analysis was then performed to determine binding affinity to EphA4 receptor. Blots were blocked with blocking buffer (5% non-fat dry milk in wash buffer (10 mM Tris pH 7.5, 100 mM NaCl, 0.1% Tween 20)) for 1 hour at room temperature. Blots were then subjected to purified mouse anti-EphA4/Sek monoclonal antibodies, (1:3000—BD Transduction Laboratories) or rabbit eEF2 (elongation factor 2) antibody (1:1000—Cell Signaling) in blocking buffer for 1 hour at room temperature. […] The blots were subjected to electrochemiluminescence for 1 minute and visualized and quantified using a charge-coupled device camera (XRS; Bio-Rad).

EphA4 [2] = target: T2, EphA4 (Rattus norvegicus, UniProt D3ZZK3); experiment: In vitro pull down model using rat brain homogenate, Western blot for EphA4; type: binding; set-up: Homogenized rat brain was used as a source for EphA4 receptor; from tissue; host or cells: rat brain homogenate; conditions: 20 micrograms peptide, rat brain lysate, Streptavidin Agarose
Experimental: as §1, §2

EphA4 [3] = target: T2, EphA4; experiment: ephrinA4-induced EphA4 tyrosine phosphorylation in brain slices containing the amygdala (immunoprecipitation, Western blot); type: cell-based; set-up: brain slices that contain the amygdala were divide to 3 groups; from tissue; host or cells: brain slices containing the amygdala; conditions: pep-ephrinA4 for 20 minutes followed by ephrinA4-Fc for 20 minutes
Experimental: Further, brain slices that contain the amygdala were divide to 3 groups: 1) placed in Ringer's solution, 2) placed in Ringer's solution and stimulated with ephrinA4-Fc for 20 minutes or 3) placed in Ringer's solution with pep-ephrinA4 for 20 minutes followed by stimulation with ephrinA4-Fc for 20 minutes (n=3 each). Protein extracts from the slices were immunoprecipitated with anti-EphA4 antibody and subjected to Western blot with anti-EphA4 or anti-phosphotyrosine antibodies.

Substance	binding to eukaryotic elongation factor 2 (eEF2), control [1]	binding to EphA4 receptor (pull-down) (EphA4 [2])	ephrinA4-induced EphA4 receptor tyrosine phosphorylation (EphA4 [3])
Ac-RRQRYTPFPLGFE-Lys(Biotin)-NH2-0H [peptide 1]	did not bind	binds	abolished
Ac-RRWSGYEACTAEG-Lys(Biotin)-NH2-0H [peptide 2, reference compound]		does not	
